Literature values as cited in patent US20060084109.
pKd: −log10 of the molar value.

Target: T1, Formamidopyrimidine glycosylase (Fpg, MutM) (Escherichia coli) (UniProt P05523)
T1 sequence: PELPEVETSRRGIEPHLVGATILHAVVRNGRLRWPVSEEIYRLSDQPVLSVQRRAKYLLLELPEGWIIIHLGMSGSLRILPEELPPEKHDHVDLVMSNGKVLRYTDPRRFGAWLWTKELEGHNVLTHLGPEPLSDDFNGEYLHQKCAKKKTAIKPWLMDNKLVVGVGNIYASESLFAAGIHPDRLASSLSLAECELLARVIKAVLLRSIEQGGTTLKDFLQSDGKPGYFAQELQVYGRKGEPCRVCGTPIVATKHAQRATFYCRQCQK
Experiment: filter
Conditions: CITED Vuyisich and Beal 2002; room temperature, 15 min

Row | Substance | pKd
1 | N1 neomycin-regulated aptamer (91-mer) | 8.12
2 | U1 control aptamer | 8.57
